Here are results for one compound from patent US9908890B2, “Selective inhibitors of constitutive androstane receptor” (ST. JUDE CHILDREN'S RESEARCH HOSPITAL, priority 2014, dated 2018).

This assay addresses T1, GST-hCAR-LBD (Homo sapiens, UniProt Q14994).
T1 construct: purchased Life Technologies (Carlsbad, Calif.) or Invitrogen (Carlsbad, Calif.)
T1 sequence (Q14994 109-352 limits assumed): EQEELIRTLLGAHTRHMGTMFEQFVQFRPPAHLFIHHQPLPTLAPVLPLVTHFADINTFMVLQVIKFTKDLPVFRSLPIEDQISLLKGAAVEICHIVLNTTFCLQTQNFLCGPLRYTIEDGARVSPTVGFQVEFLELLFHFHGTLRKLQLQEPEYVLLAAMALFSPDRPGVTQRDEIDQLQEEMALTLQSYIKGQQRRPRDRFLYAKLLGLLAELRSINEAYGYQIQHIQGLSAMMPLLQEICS
The assay is described as follows: CoAct binding inverse agonist assay (LanthaScreen TR-FRET, fluorescent PGC-1α coactivator recruitment/repression). In kind it is biochemical. As for the experimental part: The effect of putative CAR ligands on the recruitment or repression of PGC-1α binding to hCAR was evaluated by using a LanthaScreen TR-FRET assay according to the manufacturer's instructions. […] The final DMSO concentration was 0.7% in all assay wells. […] The % Inhibition values were then plotted for individual chemicals. When applicable, the graphic software GraphPad Prism 5.04 (GraphPad Software, La Jolla, Calif., USA) was used to fit the data into a one-site competitive-binding equation to derive IC50 values. […] The assay plates were then briefly spun down and incubated for 1 hour at room temperature (25° C.). […] The final DMSO concentration was 0.7% in all assay wells. […] The % Inhibition values were then plotted for individual chemicals. When applicable, the graphic software GraphPad Prism 5.04 (GraphPad Software, La Jolla, Calif., USA) was used to fit the data into a one-site competitive-binding equation to derive IC50 values.
For orientation: In TR-FRET formats the signal depends on donor and acceptor labels being close together.

Usually IC50 stands for the point on the concentration scale where inhibition reaches its midpoint. The low end stands for greater potency in that assay, the high end for weaker potency in that assay.

With `CCOC(=O)Nc1ccc2c(c1)N(C(=O)CN1[C@H]3CC[C@@H]1CC3)c1ccccc1CC2` [Compound 20, ethyl (5-(2-((1s,4s)-7-azabicyclo[2.2.1]heptan-7-yl)acetyl)-10,11-dihydro-5H-dibenzo[b,f]azepin-3-yl)carbamate], the IC50 was determined as 1410 nM.
